# Experimental data reported in PubChem BioAssay AID651704 (Broad Institute, 2012).
# The chains behind the UniProt entries cited, without tags or fusion partners.
# UniProt P42568, whole entry: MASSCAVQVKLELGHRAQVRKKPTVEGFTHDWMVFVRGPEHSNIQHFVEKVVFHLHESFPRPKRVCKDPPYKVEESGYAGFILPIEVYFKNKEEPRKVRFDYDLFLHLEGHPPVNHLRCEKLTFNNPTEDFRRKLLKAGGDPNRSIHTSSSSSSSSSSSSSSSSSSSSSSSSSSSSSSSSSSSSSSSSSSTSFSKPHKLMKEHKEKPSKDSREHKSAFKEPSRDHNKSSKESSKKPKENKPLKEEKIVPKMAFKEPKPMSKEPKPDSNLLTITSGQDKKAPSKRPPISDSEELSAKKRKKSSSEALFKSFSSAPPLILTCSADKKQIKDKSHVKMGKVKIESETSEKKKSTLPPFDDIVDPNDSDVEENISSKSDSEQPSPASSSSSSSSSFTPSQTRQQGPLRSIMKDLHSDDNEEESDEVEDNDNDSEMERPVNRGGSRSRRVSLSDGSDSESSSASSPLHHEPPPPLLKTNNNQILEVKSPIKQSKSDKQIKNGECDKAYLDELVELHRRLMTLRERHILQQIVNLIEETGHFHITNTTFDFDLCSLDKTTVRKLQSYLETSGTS
# Only a part is listed here, and it is no random draw. Some salts and complexes are drawn in separate pieces, as the source files them; their charges need not balance. Calls of active or inactive are those of the source.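 How the source made its calls: active means every replicate reaching a set inhibition limit, whatever the replicate mean (cut at about 25% in these data); inconclusive means mean inhibition reaches that limit but some replicates miss it; inactive means the rest.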
# Target: Protein AF-9 (Homo sapiens) (UniProt P42568)
# Experiment: inhibitors of AF4 peptide binding to AF9, primary screen, biochemical, AlphaScreen, biotin-AF4 peptide, FLAG-AF9, single point (AID 651704);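 further: 0% = plate neutral control median and 100% = total signal loss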
# Details: at 10 µM, active compounds read high
row,SMILES,inhibition
1,COc1ccc(N)c([N+](=O)[O-])c1[N+](=O)[O-],inactive: 3%
2,O=P(Nc1ccccn1)(c1ccc(Br)cc1)c1ccc(Br)cc1,inactive: 1.54%
3,CN(C)C1(CNC(=O)c2ccc(Cl)c(S(N)(=O)=O)c2)CCCCC1,inactive: -0.962%
4,O=P(Nc1nc2ccccc2s1)(c1ccccc1)c1ccccc1,inactive: -1.57%
5,COc1ccc(NP(C)(=O)Oc2ccccc2OC)cc1 (configuration not stated),inactive: 1.23%
6,O=[N+]([O-])c1ccc(OP2(=O)COCCO2)cc1 (configuration not stated),inactive: -0.972%
7,CC(=O)NC(SC(=S)N(C)C)C(Cl)(Cl)Cl (configuration not stated),inactive: -2.71%
8,O=[N+]([O-])c1ncn(CCn2cnc([N+](=O)[O-])n2)n1,inactive: -4.83%
9,Cc1cc(-c2cccc3ccccc23)c(C)cn1.O=[N+]([O-])c1cc([N+](=O)[O-])c(O)c([N+](=O)[O-])c1,inactive: -7.51%
10,O=[N+]([O-])c1cc([N+](=O)[O-])c(NCC2CCS(=O)(=O)C2)c([N+](=O)[O-])c1 (configuration not stated),inactive: -2.24%
11,O=[As](O)(c1ccccc1)c1ccc(O)cc1,inactive: -17.6%
12,C(Cc1nn[nH]n1)Cc1nn[nH]n1,inactive: 2.36%
13,Nc1ccc([As](=O)(O)c2ccc([N+](=O)[O-])cc2)cc1,inactive: -1.93%
14,Cc1c(C(c2ccc3c(c2)OCO3)c2c(C)n(C)n(-c3ccccc3)c2=O)c(=O)n(-c2ccccc2)n1C.O=[N+]([O-])c1cc([N+](=O)[O-])c(O)c([N+](=O)[O-])c1,inactive: 0.394%
15,C/C(N)=N\P(=O)(OCc1ccccc1)OCc1ccccc1,inactive: -1.98%
16,CP(=O)(Nc1ccc(SC(F)(F)F)cc1)Oc1ccc(F)cc1 (configuration not stated),inactive: -1.47%
17,O=[N+]([O-])c1cc([N+](=O)[O-])c(C(F)(F)F)c([N+](=O)[O-])c1O,inactive: -4.26%
18,CCOc1ccc(C2=NCC(CBr)S2)cc1 (configuration not stated),inactive: 1.46%
19,O=[N+]([O-])c1cc([N+](=O)[O-])c(Nc2ccc(Cl)cc2)c([N+](=O)[O-])c1,inactive: 13.5%
20,CP(=O)(Nc1ccccc1F)Oc1ccccc1 (configuration not stated),inactive: 1.03%
21,CCc1cc(O)c([N+](=O)[O-])c(C)c1[N+](=O)[O-],inactive: -0.308%
22,CC(C)c1ccc(OP(C)(=O)Nc2ccc(SC(F)(F)F)cc2)cc1 (configuration not stated),inactive: -3.95%
23,CC(C)(C)C(=O)NC(Sc1ccccc1)C(Cl)(Cl)Cl (configuration not stated),inactive: -1.06%

row,SMILES,inhibition
1,COC(=O)C1(C)COP(=O)(NCc2ccccc2)OC1 (configuration not stated),inactive: -1.31%
2,O=C(OC1CN2CCC1CC2)c1ccc([N+](=O)[O-])cc1 (configuration not stated),inactive: -0.14%
3,CC(=O)c1ccc(N2CC2c2ccncc2)cc1 (configuration not stated),inactive: -1.06%
4,N#C/C(=C\c1ccc(N(CCBr)CCBr)cc1)C(N)=O,inactive: 2.99%
5,C[C@H]1OP(=O)(Oc2ccccc2)C[C@@H]2O[C@@H]21 (some centres not stated),inactive: 0.705%
6,C[C@@H]1C=CCP(=O)(Oc2ccccc2)O1 (some centres not stated),inactive: 0.142%
7,Cc1ccccc1CN(C)C(=O)COC(=O)C(O)(c1ccccc1)c1ccccc1,inactive: -2.47%
8,O=C(OCCN1CCN(CCOCc2ccccc2)CC1)C(O)(c1ccccc1)c1ccccc1,inactive: 7.95%
9,CC(=O)Nc1ccc(Oc2c([N+](=O)[O-])cc([N+](=O)[O-])cc2[N+](=O)[O-])cc1,inactive: 1.3%
10,CC(=O)Nc1ccc([As](=O)(O)O)c(O)c1,inactive: -4.4%
11,COc1ccc2c(c1O)-c1c(O)c(OC)cc3c1[C@H](C2)[N+](C)(C)CC3.O=[N+]([O-])c1cc([N+](=O)[O-])c([O-])c([N+](=O)[O-])c1[O-],inactive: 0.451%
12,CCNC(=S)/N=C(\N)N[N+](=O)[O-],inactive: -0.664%
13,O=C(NC1CCS(=O)(=O)C1)NP(=S)(Oc1ccccc1)Oc1ccccc1 (configuration not stated),inactive: 0.839%
14,Cc1ccc(NP(=O)(Oc2cccc(C)c2)Oc2cccc(C)c2)nc1,inactive: 0.367%
15,CCN(CC)CCCNc1ccccc1[N+](=O)[O-].O=[N+]([O-])c1cc([N+](=O)[O-])c(O)c([N+](=O)[O-])c1,inactive: -9.4%
16,c1ccc(-c2nn[nH]n2)c(-c2nn[nH]n2)c1,inactive: -0.599%
17,O=P1(N(CCCl)CCCl)OCCC2CCCCN21 (configuration not stated),inactive: 1.11%
18,COc1ccc(OP(C)(=O)Nc2ccc(SC(F)(F)F)cc2)cc1 (configuration not stated),inactive: -1.54%
19,Cc1ccc(OP(=O)(Nc2ccccn2)Oc2ccc(C)cc2)cc1,inactive: -0.761%
20,Cc1c([N+](=O)[O-])cc([N+](=O)[O-])c(Br)c1[N+](=O)[O-],inactive: -0.692%
21,O=C(OC1CN2CCC1CC2)c1ccccc1 (configuration not stated),inactive: -1.51%
22,O=[N+]([O-])c1cc([N+](=O)[O-])c(OC2CCCCC2O)c([N+](=O)[O-])c1 (configuration not stated),inactive: -1.13%
23,O=c1c2cc([N+](=O)[O-])ccc2[nH]c2c([N+](=O)[O-])cc([N+](=O)[O-])cc12,inactive: 0.838%

row,SMILES,inhibition
1,CCCCCOc1ccc(NP(C)(=O)Oc2ccc(Cl)cc2Cl)cc1 (configuration not stated),inactive: -0.468%
2,CN(C)C(=O)Oc1noc2ccccc12,inactive: -3.41%
3,CC(NC(=O)COC(=O)C(O)(c1ccccc1)c1ccccc1)c1ccccc1 (configuration not stated),inactive: -0.861%
4,Cc1ccccc1OP(=O)(Nc1ccccn1)Oc1ccccc1C,inactive: -3.28%
5,CCCC1OP(N)(=O)OCC1CC (configuration not stated),inactive: -2.27%
6,CC(=O)Nc1ccc([As](=O)(O)O)cc1,inactive: -0.254%
7,O=C(O)c1ccccc1[As](=O)(O)O,inactive: -1.44%
8,O=P(Nc1nc2ccc(Cl)cc2s1)(c1ccccc1)c1ccccc1,inactive: 4.74%
9,Cc1cc(C)cc(OP(C)(=O)Nc2cccc(C(F)(F)F)c2)c1 (configuration not stated),inactive: -2.79%
10,CN(C)P(=O)(N(C)C)n1c(Nc2ccccc2)nnc1-c1ccccc1,inactive: 2.28%
11,O=C1C(O)=C([N+](=O)[O-])C(=O)C(O)=C1[N+](=O)[O-],inactive: -0.468%
12,Cc1ccc(NP(=O)(Oc2ccccc2F)Oc2ccccc2F)nc1,inactive: -15%
13,CN(C(=O)Cc1ccc(Cl)c(Cl)c1)[C@H]1CCCC[C@@H]1N1CCCC1,inactive: 1.74%
14,CP(=O)(Nc1ccc(Cl)cc1Cl)Oc1ccccc1 (configuration not stated),inactive: -1.04%
15,CCCCCCCCCCCCCCCC1C[N+](C)(C)CCOP(C)(=O)O1 (configuration not stated),inactive: -2.56%
16,CP(=O)(OCCOc1ccccc1)OCCOc1ccccc1,inactive: -8.59%
17,Nc1cccc2ccc([As](=O)(O)O)cc12,inactive: -0.864%
18,NC(=O)c1cc([N+](=O)[O-])cc([N+](=O)[O-])c1N,inactive: -0.357%
19,Cc1ccc(N/C(=N/P(=O)(N2CCOCC2)N2CCOCC2)N2CCOCC2)cc1,inactive: 0.058%
20,CN(C(=O)Cc1ccc(Cl)c(Cl)c1)[C@H]1CCCC[C@H]1N1CCCC1,inactive: -1.21%
21,COc1ccccc1OP(C)(=O)Nc1ccc(Br)cc1 (configuration not stated),inactive: 9.1%
22,COc1ccccc1OP(=O)(Nc1ccc(C)cn1)Oc1ccccc1OC,inactive: -0.694%
23,Clc1ccc(Cl)c(NC2=NCC(CBr)S2)c1 (configuration not stated),inactive: 0.708%

row,SMILES,inhibition
1,O=[N+]([O-])c1cc([N+](=O)[O-])c(Nc2ccccn2)c([N+](=O)[O-])c1,inactive: 7.16%
2,O=C(NC(Sc1ccncn1)C(Cl)(Cl)Cl)c1ccccc1 (configuration not stated),inactive: -3.63%
3,COc1ccc(C2=NCC(CBr)S2)cc1 (configuration not stated),inactive: -11.1%
4,CCc1ccc(OP(C)(=O)Nc2cccnc2)cc1 (configuration not stated),inactive: 0.29%
5,O=[N+]([O-])c1cc([N+](=O)[O-])c(CCNc2ccccc2)c([N+](=O)[O-])c1,inactive: 13.1%
6,Cc1ccc(NP(=O)(Oc2ccccc2)Oc2ccccc2)nc1,inactive: 0.472%
7,COc1ccccc1OP(C)(=O)Nc1ccccc1Br (configuration not stated),inactive: 0.32%
8,Nc1ccc([As](=O)(O)c2ccc(N)cc2)cc1,inactive: -6.5%
9,CCN(/C(=N/P(=O)(N1CCOCC1)N1CCOCC1)N1CCOCC1)c1ccc(OC)cc1,inactive: -2.98%
10,CC(C)c1nc(Nc2ccccc2)n(P(=O)(N(C)C)N(C)C)n1,inactive: 0.487%
11,CN(C)C(=O)c1c([N+](=O)[O-])cc([N+](=O)[O-])cc1[N+](=O)[O-],inactive: -2.78%
12,CC(C)=N/N=C(\N)N[N+](=O)[O-],inactive: 0.632%
13,c1cc(-c2nn[nH]n2)ccc1-c1nn[nH]n1,inactive: -1.39%
14,Nc1ccc2c(ccc3cccnc32)n1.O=[N+]([O-])c1cc([N+](=O)[O-])c(O)c([N+](=O)[O-])c1,inactive: -2.47%
15,O=P1(N(CCCl)CCCl)OCCCS1 (configuration not stated),inactive: -1.83%
16,O=C(Nc1cc([As](=O)(O)O)ccc1O)c1ccccc1,inactive: -6.93%
17,CCOC(=O)c1ccc(NP(C)(=O)Oc2ccc(Cl)cc2)cc1 (configuration not stated),inactive: -3.11%
18,CC(C)(C)C(=O)NC(Sc1ccncn1)C(Cl)(Cl)Cl (configuration not stated),inactive: -23.4%
19,O=[N+]([O-])c1ncn(CCn2ncnc2[N+](=O)[O-])n1,inactive: -1.1%
20,COC(=O)C1(C)COP(=O)(Nc2ccccc2)OC1 (configuration not stated),inactive: -0.441%
21,O=C(O)CNc1ccc([As](=O)(O)O)cc1,inactive: -3.48%
22,CC1CCNP(=O)(N(CCCl)CCCl)O1 (configuration not stated),inactive: 0.12%
23,O=C(O)C(=O)c1ccc(N(CCCl)CCCl)cc1.c1ccc(Nc2ccccc2)cc1,inactive: -3.01%
